Test results: US20110105397A1, “METHOD FOR TREATING HEART FAILURE WITH STRESSCOPIN-LIKE PEPTIDES” (priority 2009, published 2011)

By UniProt entry, the sequences of proteins in these tests, tags left out. Residues count along the entry.
UniProt Q60748, 1-431 isoform Q60748-2: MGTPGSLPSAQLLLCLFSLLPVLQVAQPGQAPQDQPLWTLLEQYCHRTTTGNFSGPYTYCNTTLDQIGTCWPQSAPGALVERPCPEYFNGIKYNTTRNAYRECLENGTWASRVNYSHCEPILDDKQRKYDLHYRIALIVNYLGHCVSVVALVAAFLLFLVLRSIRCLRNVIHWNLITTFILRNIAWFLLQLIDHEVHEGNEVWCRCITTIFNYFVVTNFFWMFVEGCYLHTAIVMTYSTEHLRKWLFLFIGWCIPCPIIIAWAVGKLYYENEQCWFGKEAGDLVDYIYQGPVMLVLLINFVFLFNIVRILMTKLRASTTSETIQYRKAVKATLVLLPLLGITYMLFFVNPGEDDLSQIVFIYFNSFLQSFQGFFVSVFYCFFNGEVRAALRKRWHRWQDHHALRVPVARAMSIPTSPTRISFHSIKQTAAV

Legend:
[1] = tested on: healthy and heart failure subjects; conditions: healthy 5.16 and 20.8 ng/kg/min; heart failure 4.29 and 17.2 ng/kg/min; cited from earlier work
[2] = tested on: isolated rat aortic rings; experiment: Vascular smooth muscle relaxation, isolated rat aortic rings pre-contracted with phenylephrine
Source text: The ability of h-SCP (SEQ ID NO:1) to relax vascular smooth muscle was examined in isolated, rat aortic rings pre-contracted with phenylephrine (PE) (FIG. 8). […] The responses caused by h-SCP (SEQ ID NO:1) were inhibited by anti-sauvagine-30 (SEQ ID NO:118).

human CRHR2 = biological target: T1, human CRHR2 (Homo sapiens, UniProt Q13324); experiment: CRHR2 radioligand binding, [125I]-anti-sauvagine-30, SK-N-MC membranes; conditions: for Ki / nH: CRHR2
T1 construct: expressed in transfected cells
T1 sequence (Q13324 1-411): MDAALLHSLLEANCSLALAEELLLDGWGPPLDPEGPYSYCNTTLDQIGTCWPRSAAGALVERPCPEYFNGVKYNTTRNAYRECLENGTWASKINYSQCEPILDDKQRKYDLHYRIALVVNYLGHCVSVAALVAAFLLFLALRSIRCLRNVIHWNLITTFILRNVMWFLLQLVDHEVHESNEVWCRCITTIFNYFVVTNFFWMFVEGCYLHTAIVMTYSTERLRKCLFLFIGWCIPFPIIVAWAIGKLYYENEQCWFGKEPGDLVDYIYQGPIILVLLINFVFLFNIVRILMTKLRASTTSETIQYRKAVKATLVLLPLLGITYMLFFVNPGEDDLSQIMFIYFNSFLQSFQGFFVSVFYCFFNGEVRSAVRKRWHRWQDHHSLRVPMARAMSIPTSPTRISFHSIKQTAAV
Experimental: The binding profile of h-SCP (SEQ ID NO:1) at CRHR2 was determined in radioligand binding studies in a membrane preparation of SK-N-MC cells stably transfected with human CRHR2 using [^125I]-anti-sauvagine-30 as the radiolabel. […] The solution was then homogenized with a Polytron tissue grinder at a setting of 10 and 7×3 s (Brinkmann Instruments, Westbury, N.Y.). […] The supernatant was re-centrifuged at 26,892×g for 25 min at 4° Celsius with the final pellet being re-suspended in assay buffer. […] For competition studies, cell membranes of […] volume were incubated with either 60 pM [^125I]-anti-sauvagine-30 in 50 μl volume for the CRHR2 assay or with)[^125I]-([…]-sauvagine for the CRHR1 assay in the presence of 15 μl of competing ligand for 120 min having a total volume of 150 μl. […] The bound radioactivity was separated by filtration using a Multiscreen Resist manifold (Millipore Corp., Billerica, Mass., U.S.A). The filters were washed three times with ice-cold PBS at pH 7.5 and radioactivity retained on the filters was quantified by its liquid scintillation measured by a TopCount counter (Packard BioScience, Boston, Mass., U.S.A). All experiments were performed in triplicate. Data from individual competition curves were expressed as the percentage of specific [^125I]-anti-sauvagine-30 or)[^125I]-([…]-sauvagine binding (B) within each experiment. […] The competition curve obtained with h-SCP (SEQ ID NO:1) was biphasic.

m-CRHR2b = m-CRHR2b (Mus musculus, UniProt Q60748); conditions: m-CRHR2b transfected HEK-293 cells (Brauns et al., 2002); cited from earlier work
CRHR1 = biological target: T2, CRHR1 (Homo sapiens, UniProt P34998); experiment: CRHR1 radioligand binding, [125I]-(Tyr0)-sauvagine; set-up: host or cells: cell membranes
T2 sequence (P34998 24-415): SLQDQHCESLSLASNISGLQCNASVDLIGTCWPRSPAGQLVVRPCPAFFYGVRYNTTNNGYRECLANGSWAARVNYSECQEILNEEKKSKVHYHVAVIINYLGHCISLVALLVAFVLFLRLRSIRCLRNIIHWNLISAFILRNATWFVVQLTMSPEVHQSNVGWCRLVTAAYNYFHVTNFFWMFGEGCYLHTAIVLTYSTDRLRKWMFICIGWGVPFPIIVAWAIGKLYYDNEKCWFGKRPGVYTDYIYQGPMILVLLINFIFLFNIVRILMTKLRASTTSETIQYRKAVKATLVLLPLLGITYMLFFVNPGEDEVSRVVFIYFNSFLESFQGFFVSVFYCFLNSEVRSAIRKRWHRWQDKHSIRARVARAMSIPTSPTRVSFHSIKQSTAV
Experimental: The solution was then homogenized with a Polytron tissue grinder at a setting of 10 and 7×3 s (Brinkmann Instruments, Westbury, N.Y.). […] The supernatant was re-centrifuged at 26,892×g for 25 min at 4° Celsius with the final pellet being re-suspended in assay buffer. […] For competition studies, cell membranes of […] volume were incubated with either 60 pM [^125I]-anti-sauvagine-30 in 50 μl volume for the CRHR2 assay or with)[^125I]-([…]-sauvagine for the CRHR1 assay in the presence of 15 μl of competing ligand for 120 min having a total volume of 150 μl. […] The bound radioactivity was separated by filtration using a Multiscreen Resist manifold (Millipore Corp., Billerica, Mass., U.S.A). The filters were washed three times with ice-cold PBS at pH 7.5 and radioactivity retained on the filters was quantified by its liquid scintillation measured by a TopCount counter (Packard BioScience, Boston, Mass., U.S.A). All experiments were performed in triplicate. Data from individual competition curves were expressed as the percentage of specific [^125I]-anti-sauvagine-30 or)[^125I]-([…]-sauvagine binding (B) within each experiment.

SMILES	effect on LVEF, CO, heart rate and blood pressure [1]	pA50 of relaxation [2]	Ki (human CRHR2) [nM]	nH (human CRHR2)	competition curve / binding profile (human CRHR2; CRHR2, [125I]-anti-sauvagine-30)	Published pA50 (m-CRHR2b)	Ki (CRHR1) [nM]	nH (CRHR1)
CC[C@H](C)[C@H](N)C(=O)N[C@H](C(=O)N[C@@H](CC(C)C)C(=O)N[C@@H](CO)C(=O)N[C@@H](CC(C)C)C(=O)N[C@@H](CC(=O)O)C(=O)N[C@H](C(=O)N1CCC[C@H]1C(=O)N[C@H](C(=O)NCC(=O)N[C@@H](CC(C)C)C(=O)N[C@@H](CC(C)C)C(=O)N[C@@H](CCC(N)=O)C(=O)N[C@H](C(=O)N[C@@H](CC(C)C)C(=O)N[C@@H](CC(C)C)C(=O)N[C@@H](CCC(=O)O)C(=O)N[C@@H](CCC(N)=O)C(=O)N[C@@H](C)C(=O)N[C@@H](CCCNC(=N)N)C(=O)N[C@@H](C)C(=O)N[C@@H](CCCNC(=N)N)C(=O)N[C@@H](C)C(=O)N[C@@H](C)C(=O)N[C@@H](CCCNC(=N)N)C(=O)N[C@@H](CCC(=O)O)C(=O)N[C@@H](CCC(N)=O)C(=O)N[C@@H](C)C(=O)N[C@H](C(=O)N[C@H](C(=O)N[C@@H](CC(N)=O)C(=O)N[C@@H](C)C(=O)N[C@@H](CCCNC(=N)N)C(=O)N[C@H](C(=O)N[C@@H](CC(C)C)C(=O)N[C@@H](C)C(=O)N[C@@H](CCCNC(=N)N)C(=O)N[C@H](C(N)=O)C(C)C)[C@@H](C)CC)[C@@H](C)O)[C@@H](C)O)[C@@H](C)CC)[C@@H](C)CC)C(C)C)C(C)C [SEQ ID NO: 115, IVLSLDVPIGLLQILLEQARARAAREQATTNARILARV-NH2, reference compound]	increases in LVEF and CO in the subjects that were accompanied by a significant increase in heart rate and decrease in blood pressure	7.01±0.13	18.2	1.28 ± 0.15	exhibited only high affinity binding	9.12	–	–
CC[C@H](C)[C@H](NC(=O)[C@H](CCC(N)=O)NC(=O)[C@H](C)NC(=O)[C@H](CCSC)NC(=O)[C@H](CC(C)C)NC(=O)[C@H](Cc1c[nH]cn1)NC(=O)[C@H](C)NC(=O)[C@H](CC(N)=O)NC(=O)[C@H](C)NC(=O)[C@H](C)NC(=O)[C@H](C)NC(=O)[C@H](CCC(N)=O)NC(=O)[C@H](C)NC(=O)[C@H](CCCNC(=N)N)NC(=O)[C@H](CC(C)C)NC(=O)[C@H](CC(N)=O)NC(=O)[C@H](CCCCN)NC(=O)[C@H](C)NC(=O)[C@H](CCCCN)NC(=O)[C@H](C)NC(=O)[C@@H](NC(=O)[C@H](CC(N)=O)NC(=O)[C@H](Cc1ccccc1)NC(=O)[C@H](CC(C)C)NC(=O)[C@H](CC(C)C)NC(=O)[C@H](CC(N)=O)NC(=O)[C@H](CCSC)NC(=O)[C@@H](NC(=O)[C@H](CC(N)=O)NC(=O)[C@@H](NC(=O)[C@@H]1CCCN1C(=O)[C@@H](NC(=O)[C@H](CC(=O)O)NC(=O)[C@H](CC(C)C)NC(=O)[C@H](CO)NC(=O)[C@H](CC(C)C)NC(=O)[C@@H](NC(=O)[C@@H](N)Cc1ccccc1)[C@@H](C)O)C(C)C)[C@@H](C)O)[C@@H](C)CC)[C@@H](C)CC)C(N)=O [SEQ ID NO: 116, FTLSLDVPTNIMNLLFNIAKAKNLRAQAAANAHLMAQI-NH2]	–	–	324	0.68 ± 0.08	–	–	11000	0.79 ± 1.21
